Assay results reported in patent US20130130985A1 (published 2013).

Sequences of proteins named here, by UniProt entry; tags and fusion partners are left off.
UniProt P37288, whole entry: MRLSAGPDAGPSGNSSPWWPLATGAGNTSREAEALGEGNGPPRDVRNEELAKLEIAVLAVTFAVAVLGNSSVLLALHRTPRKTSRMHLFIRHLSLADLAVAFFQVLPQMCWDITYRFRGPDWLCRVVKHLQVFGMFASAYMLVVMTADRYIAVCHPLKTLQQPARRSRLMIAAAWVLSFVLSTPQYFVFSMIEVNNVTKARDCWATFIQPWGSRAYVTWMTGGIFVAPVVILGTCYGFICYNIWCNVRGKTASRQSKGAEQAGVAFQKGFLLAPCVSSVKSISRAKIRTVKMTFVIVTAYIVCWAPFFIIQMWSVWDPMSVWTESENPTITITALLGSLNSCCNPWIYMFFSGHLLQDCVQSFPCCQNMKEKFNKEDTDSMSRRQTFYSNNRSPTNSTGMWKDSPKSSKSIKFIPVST

Tests used:
[1] = biological target: T1, hV1bR (Homo sapiens, UniProt P47901); assay: Functional IP-One HTRF assay; assay type: cell-based
T1 sequence (P47901 1-424): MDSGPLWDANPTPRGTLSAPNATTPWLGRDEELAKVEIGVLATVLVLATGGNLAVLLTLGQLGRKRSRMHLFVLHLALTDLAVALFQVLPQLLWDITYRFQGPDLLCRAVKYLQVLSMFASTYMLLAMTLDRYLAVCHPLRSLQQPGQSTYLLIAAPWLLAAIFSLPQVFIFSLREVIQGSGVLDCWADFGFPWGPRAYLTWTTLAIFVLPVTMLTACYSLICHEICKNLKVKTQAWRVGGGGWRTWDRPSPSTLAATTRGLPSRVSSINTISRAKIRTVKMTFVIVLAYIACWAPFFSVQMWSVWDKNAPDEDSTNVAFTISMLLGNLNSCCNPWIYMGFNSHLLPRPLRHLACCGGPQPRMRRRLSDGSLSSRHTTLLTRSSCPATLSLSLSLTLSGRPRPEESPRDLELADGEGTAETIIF

[2] = biological target: T1, hV1bR; assay: Functional FLIPR assay (calcium signalling); assay type: cell-based; conditions: for Emax: read-out: hV1bR Emax
[3] = biological target: T1, hV1bR; assay: Radioligand binding assay, displacement of 3H-AVP, COS-1 membranes
[4] = biological target: T2, hV2R (Homo sapiens, UniProt P30518); assay: Radioligand binding assay, displacement of 3H-AVP, HEK293 membranes
[5] = biological target: T3, hV1aR (Homo sapiens, UniProt P37288); assay: Functional FLIPR assay (calcium signalling); assay type: cell-based
[6] = biological target: T2, hV2R; assay: Functional cAMP accumulation assay; assay type: cell-based
[7] = biological target: T3, hV1aR; assay: Functional IP-One HTRF assay; assay type: cell-based; conditions: for Emax: read-out: hV1aR Emax
[8] = biological target: T4, hOTR (Homo sapiens, UniProt P30559); assay: Radioligand binding assay, displacement of 3H-OT, COS-1 membranes
T4 sequence (P30559 1-389): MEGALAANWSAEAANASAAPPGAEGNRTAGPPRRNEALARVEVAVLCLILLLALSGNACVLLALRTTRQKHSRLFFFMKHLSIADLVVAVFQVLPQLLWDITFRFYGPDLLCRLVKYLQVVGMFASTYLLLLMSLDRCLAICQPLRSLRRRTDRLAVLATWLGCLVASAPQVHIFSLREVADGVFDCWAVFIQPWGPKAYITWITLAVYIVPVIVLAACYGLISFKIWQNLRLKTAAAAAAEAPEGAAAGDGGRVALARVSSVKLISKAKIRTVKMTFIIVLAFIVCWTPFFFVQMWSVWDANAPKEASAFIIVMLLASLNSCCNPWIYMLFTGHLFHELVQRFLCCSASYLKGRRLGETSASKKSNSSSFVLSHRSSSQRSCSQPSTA

[9] = biological target: T4, hOTR; assay: Functional FLIPR assay (calcium signalling); assay type: cell-based; conditions: for Emax: read-out: hOTR Emax
[10] = biological target: T4, hOTR; assay: Functional IP-One HTRF assay; assay type: cell-based; conditions: for Emax: read-out: hOTR Emax
[11] = Stability assay in rat plasma and human serum (metabolic half life)

| Structure (SMILES) | Emax [2] | EC50 [5] | EC50 [7] | Emax [9] | Emax [10] | Emax [7] | other results |
| --- | --- | --- | --- | --- | --- | --- | --- |
| CC[C@H](C)[C@@H]1NC(=O)[C@H](Cc2ccc(O)cc2)NC(=O)[C@@H](N)C[Se][Se]C[C@@H](C(=O)N2CCC[C@H]2C(=O)N[C@@H](CC(C)C)C(=O)NCC(N)=O)NC(=O)[C@H](CC(N)=O)NC(=O)[C@H](CCC(N)=O)NC1=O [[Se—Se]-OT, [C1,6U]-OT] | 82% | – | – | – | – | – | EC50 ([1]; hV1bR EC50, IP-One assay, COS-1): 510 ± 172 nM; Emax ([1]; read-out: hV1bR Emax): 103 ± 12%; EC50 [2]: 7.75 nM; IC50 [3]: 1760 ± 188 nM; IC50 [4]: 3350 ± 804 nM |
| CC[C@H](C)[C@@H]1NC(=O)[C@H](Cc2ccc(O)cc2)NC(=O)[C@@H](N)C[Se][Se]C[C@@H](C(=O)N2CCC[C@H]2C(=O)N[C@@H](CC(C)C)C(=O)NCC(=O)O)NC(=O)[C@H](CC(N)=O)NC(=O)[C@H](CCC(N)=O)NC1=O [[Se—Se]-OT-OH, [C1,6U]-OT-OH] | – | > 100000 nM | > 100000 nM | – | – | – | EC50 ([6]; hV2R EC50, cAMP assay, HEK293): 495 nM; Emax ([6]; read-out: hV2R Emax): 114 ± 46% |
| CC[C@H](C)[C@@H]1NC(=O)[C@H](Cc2ccc(O)cc2)NC(=O)[C@@H](N)C[Te][Te]C[C@@H](C(=O)N2CCC[C@H]2C(=O)N[C@@H](CC(C)C)C(=O)NCC(N)=O)NC(=O)[C@H](CC(N)=O)NC(=O)[C@H](CCC(N)=O)NC1=O [[Te—Te]-OT, [Cys1,6Tec]-Oxytocin] | – | 4280 ± 3380 nM | > 10000 nM | 86% | 98% | – | IC50 [8]: 8 nM; EC50 [9]: 11.3 ± 7.5 nM; EC50 [10]: 13.3 ± 11 nM |
| CC[C@H](C)[C@@H]1NC(=O)[C@H](Cc2ccc(O)cc2)NC(=O)[C@@H](N)CS[Se]C[C@@H](C(=O)N2CCC[C@H]2C(=O)N[C@@H](CC(C)C)C(=O)NCC(N)=O)NC(=O)[C@H](CC(N)=O)NC(=O)[C@H](CCC(N)=O)NC1=O [[S—Se]-OT, [C6U]-OT] | 73% | – | – | 82% | 55 ± 9% | 67 ± 20% | – |
| CC[C@H](C)[C@@H]1NC(=O)[C@H](Cc2ccc(O)cc2)NC(=O)[C@@H](N)C[Se]SC[C@@H](C(=O)N2CCC[C@H]2C(=O)N[C@@H](CC(C)C)C(=O)NCC(N)=O)NC(=O)[C@H](CC(N)=O)NC(=O)[C@H](CCC(N)=O)NC1=O [[Se—S]-OT, [C1U]-OT] | 82% | – | – | 85% | 84 ± 6% | 96 ± 19% | half-life at 0.043 mM [11]: 18.6 ± 3 h; Emax ([5]; read-out: hV1aR Emax): 90% |
